Test system: COVID-19
Test: coronavirus deactivation test after attachment to the surfaces, qPCR for genes indicative of COVID-19 activity
Details: Example 3, foam coated with a single antiviral compound

Compound: CCCCCCCCCCCCCCCCCC[N+](C)(C)CCC[Si](OC)(OC)OC.[Cl-] [DMS, Dimethyloctadecyl[3-(trimethoxysilyl)propyl]ammonium chloride]
- % Deactivated of that captured: 42.8%

Source: patent US11179663B1, “Polyurethane-based materials” (Aviro LLC, priority 2021, dated 2021)
